# Ab-91 heavy chain CDR variants: yeast mating affinities

Reference: Engelhart et al. 2022, doi:10.1038/s41597-022-01779-4. File: FLAb, binding data.

Target peptide (SARS-CoV-2 spike, HR2 region): PDVDLGDISGINAS

Each scFv is VL, a 15-residue (Gly4Ser)3 linker, VH, as in the parent Ab-91, and differs from it in the CDRs of the heavy chain only.
VL: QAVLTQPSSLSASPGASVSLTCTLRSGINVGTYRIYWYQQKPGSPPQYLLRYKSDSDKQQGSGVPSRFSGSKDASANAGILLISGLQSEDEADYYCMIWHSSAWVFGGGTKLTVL
VH: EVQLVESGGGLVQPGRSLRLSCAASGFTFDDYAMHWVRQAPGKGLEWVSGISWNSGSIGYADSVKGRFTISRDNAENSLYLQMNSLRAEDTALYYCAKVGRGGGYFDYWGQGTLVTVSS

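Phage display of a naive human antibody library on the peptide gave the parent. The library (AAYL51) carries one to three amino acid substitutions per variant, with no insertions or deletions. Affinity was read by AlphaSeq, a pooled yeast mating assay with surface-displayed partners. The frequency of each diploid, read from paired DNA barcodes, reflects how well the two displayed proteins bind. Scores were corrected for input abundance and mapped to Kd with protein pairs of known affinity run in the same pool. The assay was run in three technical replicates.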

The parent's heavy chain CDRs are GFTFDDYAMH, GISWNSGSIGYADSVK, VGRGGGYFDY; each variant's own CDRs replace them letter for letter.
All variants listed here change I51 of the VH, counted from its first residue.
Values are apparent Kd, the geometric mean of the replicates that gave a signal; lower means stronger binding.
A pair that was not seen in any replicate is written "no signal"; this usually means weak binding, but a binder can also be missed.
Background: pairings of library AAYL51 with three empty control strains gave a value in 21% of cases (median 34 µM, 5th percentile 1.8 µM). Values in that range, when seen in few replicates, are hard to tell from nonspecific mating. For each scFv, signals with the empty controls are counted beside the result.

Variant GFTIDDYAMH | GCSWNSGSIGYADSVK | VGRGGGYFGY showed no signal (0 of 3 replicates; controls 0 of 9).
Variant GFTFDDYALH | GESWNSGSIGYADSVK | VGRGGGYYDY showed no signal (0 of 3 replicates; controls 0 of 9).
Variant GKTFDDYAMH | GTSWNSGSIGYADSVK | VGRGNGYFDY showed 1.0 mM (3 of 3 replicates; controls 7 of 9).
Variant GFTFDDYMMH | GGSWNSGSIGYADSVK | VGRGGGYFDC showed no signal (0 of 3 replicates; controls 1 of 9).
Variant GFYFDDYAMH | GMSWNSGSIGYADSVK | VGRCGGYFDY showed 3.7 µM (1 of 3 replicates; controls 1 of 9).
Variant GFTFDDYAMH | GGSWNSGSIGYADTVK | VGRGGGYFDM showed no signal (0 of 3 replicates; controls 0 of 9).
Variant GFTCDDYAMH | GCVWNSGSIGYADSVK | VGRGGGYFDY showed no signal (0 of 3 replicates; controls 0 of 9).
Variant SFTFDDYACH | GMSWNSGSIGYADSVK | VGRGGGYFDY showed no signal (0 of 3 replicates; controls 2 of 9).
Variant GFTFDDMAMH | GVSWNSGSIGRADSVK | VGRGGGYFDY showed 14 µM (1 of 3 replicates; controls 2 of 9).
Variant GFTFDDYAMH | GQSWNSGSIGYAASVK | VGRGGGYTDY showed 98 µM (2 of 3 replicates; controls 6 of 9).
Variant GFTFDDYAMH | GFSWNSGSIGYADSVK | CGRHGGYFDY showed no signal (0 of 3 replicates; controls 2 of 9).
Variant GFTMDDYAMH | GESWNSGSIGYADSVK | YGRGGGYFDY showed no signal (0 of 3 replicates; controls 4 of 9).
Variant GFTFDDYYHH | GKSWNSGSIGYADSVK | VGRGGGYFDY showed no signal (0 of 3 replicates; controls 3 of 9).
Variant GFTFDDYAMH | GSSWNSGSIGYADSVC | VGRGGGYFDY showed 780 nM (3 of 3 replicates; controls 2 of 9).
Variant GFTFDDYAMH | GSSVNSGSIGYADSVK | VGRGGGYFDY showed no signal (0 of 3 replicates; controls 6 of 9).
Variant GFTFDDYAMH | GRSWNSGSIGYADSVK | VWRGGGYWDY showed no signal (0 of 3 replicates; controls 1 of 9).
Variant GFTFDDYAMH | GQSWQSGSIGYADSVK | VGRGGGYFDY showed 36 µM (1 of 3 replicates; controls 2 of 9).
Variant GFTFDDYAMH | NKSLNSGSIGYADSVK | VGRGGGYFDY showed no signal (0 of 3 replicates; controls 3 of 9).
Variant GFTFDDYAMH | GCSWNSGNYGYADSVK | VGRGGGYFDY showed 21 µM (1 of 3 replicates; controls 5 of 9).
Variant GFTFDDYAMH | GSSWNSGSIGYADSVK | VGRGGGYFDY showed 78 µM (2 of 3 replicates; controls 2 of 9).
Variant GFTFDDYAMH | GQSWNSISIGYADSVK | GGRGGGYFDY showed no signal (0 of 3 replicates; controls 0 of 9).
Variant GFTFDDYAMH | GCSWNSSSIGYARSVK | VGRGGGYFDY showed 12 µM (1 of 3 replicates; controls 1 of 9).
Variant GFTFDDYAMH | GHSWNSGSIGYADSVK | VGRGWGYFDY showed 100 µM (2 of 3 replicates; controls 4 of 9).
Variant GFTFDDYAMH | NHSWNSGSIGYADSVM | VGRGGGYFDY showed no signal (0 of 3 replicates; controls 0 of 9).
Variant GFTFDDYAMH | GWSWNSGSWGYADSVK | VGRGGGYFMY showed no signal (0 of 3 replicates; controls 0 of 9).
Variant GFTFDDYAMF | GTSWNSGSIGYADSVK | VGRGGDYFDY showed no signal (0 of 3 replicates; controls 0 of 9).
Variant GFTFDKYAMH | GMSWNSGSPGYADSVK | VGRGGGYFDY showed no signal (0 of 3 replicates; controls 1 of 9).
Variant GFTFDDYEMH | GFSWNSGSIGYADSVK | VGRGGGYFGY showed no signal (0 of 3 replicates; controls 1 of 9).
Variant GFTFDDYAMH | GKWWNSGCIGYADSVK | VGRGGGYFDY showed no signal (0 of 3 replicates; controls 0 of 9).
Variant GFTFDDYAMH | GFSWNSGSIGWADSVK | VGRGGGYFSY showed 14 µM (1 of 3 replicates; controls 4 of 9).
Variant GFTFDDYAMH | GDSWWSGSIGYADSVK | VGRGGSYFDY showed no signal (0 of 3 replicates; controls 2 of 9).
Variant GFTFDDYAMH | GGSPNSGSIGYGDSVK | VGRGGGYFDY showed no signal (0 of 3 replicates; controls 0 of 9).
Variant GFTFDDYAMH | GTSWNSGCIGYIDSVK | VGRGGGYFDY showed no signal (0 of 3 replicates; controls 1 of 9).
Variant GFTFDDYAMH | GHSWNSGSITYADSVK | VGRGGGYFDY showed no signal (0 of 3 replicates; controls 0 of 9).
Variant GFHFDDYAMH | GDSWNSGSIGYADSVK | VGCGGGYFDY showed no signal (0 of 3 replicates; controls 2 of 9).
Variant GFTQDDYAMH | GPSWNSGSIGYADSVK | VGRGGGYFDY showed 29 µM (2 of 3 replicates; controls 4 of 9).
Variant GFTFDDYAMH | GRSWNSESIGYADSCK | VGRGGGYFDY showed 1.0 µM (1 of 3 replicates; controls 0 of 9).
Variant GFTFDDQAMH | GTSWNSGSIGYADSVK | VGRAGGYFDY showed no signal (0 of 3 replicates; controls 2 of 9).
Variant GETFDDYAMH | GTSWNSGSIGYADSVK | VGRWGGYFDY showed 5.5 µM (1 of 3 replicates; controls 0 of 9).
Variant GFTFDDYAMH | GYSWNSGSIGYADSVK | VGRGGNYFDY showed no signal (0 of 3 replicates; controls 0 of 9).
Variant GFTFDDYAMH | GASWNSGSIGYHDGVK | VGRGGGYFDY showed 88 µM (1 of 3 replicates; controls 3 of 9).
Variant GFTFDDYAMH | GGSWNSGSIWYADWVK | VGRGGGYFDY showed 40 µM (1 of 3 replicates; controls 1 of 9).
Variant GFTFDDYAMH | GTSENSGSIGGADSVK | VGRGGGYFDY showed 150 µM (3 of 3 replicates; controls 4 of 9).
Variant GFTVDDYAMH | GGSWNSGSIGYADSVK | VGRGGGSFDY showed no signal (0 of 3 replicates; controls 0 of 9).

Extract of 3 entries:

CDR-H1,CDR-H2,CDR-H3,Kd (apparent),replicates with signal,control signals
GFTFDDQAMH,GTSWNSGSIGYADSVK,VGRAGGYFDY,no signal,0/3,2/9
GKTFDDYAMH,GTSWNSGSIGYADSVK,VGRGNGYFDY,1.0 mM,3/3,7/9
GFTFDDYAMH,GWSWNSGSWGYADSVK,VGRGGGYFMY,no signal,0/3,0/9